Experiments:
[1] = molecular target: bovine pancreatic trypsin (Bos taurus, UniProt P00760); experiment: Trypsin chromogenic substrate assay; conditions: read-out: Trypsin IC50
[2] = molecular target: human α-thrombin (Homo sapiens, UniProt P00734); experiment: Thrombin (fIIa) chromogenic substrate assay; conditions: for IC50: read-out: fIIa IC 50 (0 min), 0 min; for Ki: read-out: fIIa Ki
[3] = molecular target: Factor Xa (Homo sapiens, UniProt P00742); experiment: Factor Xa chromogenic substrate assay; conditions: read-out: fXa IC50

Sequences of proteins named here, by UniProt entry; tags and fusion partners are left off. Residues count along the entry.
UniProt P00760, 24-246 limits assumed: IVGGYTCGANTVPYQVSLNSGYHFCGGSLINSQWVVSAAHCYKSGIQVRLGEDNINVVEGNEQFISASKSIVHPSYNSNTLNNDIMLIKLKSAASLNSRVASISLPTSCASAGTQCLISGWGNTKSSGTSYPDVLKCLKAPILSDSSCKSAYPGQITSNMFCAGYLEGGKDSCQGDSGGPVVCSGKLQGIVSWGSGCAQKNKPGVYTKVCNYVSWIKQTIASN
UniProt P00742, 41-179 limits assumed: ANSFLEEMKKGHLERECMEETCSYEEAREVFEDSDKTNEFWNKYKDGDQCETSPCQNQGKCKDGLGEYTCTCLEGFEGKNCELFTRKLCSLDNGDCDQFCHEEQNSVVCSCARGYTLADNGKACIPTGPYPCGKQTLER
UniProt P00742, 235-488 limits assumed: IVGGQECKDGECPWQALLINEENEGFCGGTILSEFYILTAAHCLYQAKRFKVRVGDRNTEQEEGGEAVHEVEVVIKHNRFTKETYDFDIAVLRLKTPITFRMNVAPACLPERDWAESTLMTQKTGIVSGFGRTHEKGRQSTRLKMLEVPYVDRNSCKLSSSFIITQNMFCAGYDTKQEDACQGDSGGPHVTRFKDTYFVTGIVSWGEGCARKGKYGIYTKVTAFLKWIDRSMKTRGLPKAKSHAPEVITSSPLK

IC50 [1]	IC50 [2]	Ki [2]	IC50 [3]	SMILES
> 100 µM	< 0.1 µM	< 0.1 µM	> 100 µM	Cc1ccc(NS(=O)(=O)Cc2ccccc2)c(=O)n1CC(=O)NCC1CN=C(N)NC1 (stereo not drawn)
> 100 µM	< 0.1 µM	< 0.1 µM	> 100 µM	Cc1ccc(NS(=O)(=O)Cc2ccccc2)c(=O)n1CC(=O)NCC1CN=C(N)NC1C (stereo not drawn)
> 100 µM	0.3 to 2.5 µM	< 0.1 µM	> 100 µM	Cc1nc(N)ncc1CNC(=O)Cn1c(C)ccc(NS(=O)(=O)c2ccc3c(c2)OCCO3)c1=O
> 100 µM	0.3 to 2.5 µM	0.1 to 0.399 µM	> 100 µM	Cc1nc(N)nc(C)c1CNC(=O)Cn1c(C)ccc(NS(=O)(=O)Cc2ccccc2)c1=O
> 100 µM	< 0.1 µM	< 0.1 µM	> 100 µM	Cc1cnc(NCCc2ccccc2)c(=O)n1CC(=O)NCC1CN=C(N)NC1 (stereo not drawn)
> 2.5 µM	0.3 to 2.5 µM	0.1 to 0.399 µM	> 2.5 µM	Cc1ccc(NS(=O)(=O)Cc2ccccc2)c(=O)n1CC(=O)NCc1cnc(N)cn1
> 100 µM	0.3 to 2.5 µM	< 0.1 µM	> 100 µM	Cc1nc(N)ncc1CNC(=O)Cn1c(C)ccc(NS(=O)(=O)Cc2ccccc2)c1=O
> 100 µM	< 0.1 µM	< 0.1 µM	> 100 µM	Cc1cnc(NCCc2ccccc2)c(=O)n1CC(=O)NCC1CN=C(N)NC1C (stereo not drawn)
> 100 µM	0.3 to 2.5 µM	0.1 to 0.399 µM	> 100 µM	Cc1nc(N)ncc1CNC(=O)Cn1c(C)ccc(NCCc2ccccc2)c1=O
